Laboratory results reported in US7563771B2, “Synthetic single domain polypeptides mimicking apolipoprotein E” (UAB Research Foundation, priority 2002, dated 2009).

System: erythrocytes
Test: Hemolysis of erythrocytes (hemoglobin content of supernatant, absorbance at 540 nm)
Type: cell-based
Conditions: erythrocytes in PBS, 10 min at 37° C. (FIG. 2)
Description: This example was performed to test the affect of amino acid residue changes on the lytic nature of peptides of the invention. Lysine residues, which resided on the polar face of the single domain peptide, were substituted with arginine and such altered peptides were tested for lytic ability. Similarly, in other peptides of the invention, lysine residues on the polar face of the single domain peptide of the invention were dimethylated. These altered peptides neutralized the hemolytic property of the 18 L peptide. A suspension of erythrocytes (10^6 cells/ml) in phosphate-buffered saline with and without peptide (10 ml of […] peptide solution) was incubated for 10 min at 37° C. Hemolysis was expressed as hemoglobin content (absorbance at 540 nm) of the supernatant after centrifugation at 16,000×g for 3 min. Hemoglobin content as measured in the presence of 0.1% Triton X-100 was taken as 100% hemolysis.

Ac-DWLKAFYDKVAEKLKEAF-NH2 [18A] was tested, and the “hemolysis / cell lysis, in words” value was “did not cause lysis; also recorded: do not cause cell lysis”.

“Also recorded” adds a separate entry of the source.
